The results in this text go back to ChEMBL document CHEMBL3352141, “Carboline- and phenothiazine-derivated heterocycles as potent SIGMA-1 protein ligands” (Eur J Med Chem, 2015).

Amino acid sequences for entries named in this document (tags omitted).
UniProt Q99720, whole entry: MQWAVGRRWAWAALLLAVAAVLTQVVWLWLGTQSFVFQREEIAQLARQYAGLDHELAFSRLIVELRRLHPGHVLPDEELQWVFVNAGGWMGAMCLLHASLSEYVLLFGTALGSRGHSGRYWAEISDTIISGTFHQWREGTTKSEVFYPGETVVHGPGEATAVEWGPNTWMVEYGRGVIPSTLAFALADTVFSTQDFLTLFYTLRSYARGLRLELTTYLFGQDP

This assay deals with Sigma non-opioid intracellular receptor 1 (Homo sapiens, UniProt Q99720). The assay is described as follows: Displacement of [3H](+)-pentazocine from human sigma 1 receptor in human Jurkat cell membranes incubated for 2 hrs by liquid scintillation counting.

Compound `CN(CCCN1C(=O)[C@H]2Cc3ccccc3CN2C1=O)Cc1ccccc1` returned a Ki of 7.1 nM. `CN(CCCN1C(=O)[C@@H]2Cc3ccccc3CN2C1=O)Cc1ccccc1` yielded a Ki of 4.5 nM. Against the preceding compound, the Ki is about 1.6-fold lower.
